AlphaSeq binding of Ab-14 light chain variants to a spike HR2 peptide

Target peptide (SARS-CoV-2 spike, HR2 region): PDVDLGDISGINAS

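The parent was found by panning a naive human phage display library on the peptide. The variants were designed computationally from a first round of random CDR variants and then made and measured. Group labels follow the data file (Ctrl: baseline library sampled from a position-specific scoring matrix, with some repeated check sequences; En: ensemble of fine-tuned language models; GP: Gaussian process model; HC: hill climbing; Gen: genetic algorithm; Gibbs: Gibbs sampling; a sequence that several methods proposed may carry one label only). AlphaSeq pools MATa yeast showing the antibodies with MATalpha yeast showing the peptide. Mating (16 h, 30 °C) was followed by selection of diploids and sequencing of their barcodes. The ratio of observed to expected reads was calibrated, replicate by replicate, on BCL2-family standards whose Kd was known from biolayer interferometry. The assay was run in six technical replicates.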

Parent scFv Ab-14: VH joined to VL by a (GGGGS)3 linker. Changes lie in the light chain CDRs alone.
VH: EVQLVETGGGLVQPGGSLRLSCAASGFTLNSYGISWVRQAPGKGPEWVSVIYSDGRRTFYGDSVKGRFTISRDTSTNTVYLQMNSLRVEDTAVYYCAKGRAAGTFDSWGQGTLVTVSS
VL: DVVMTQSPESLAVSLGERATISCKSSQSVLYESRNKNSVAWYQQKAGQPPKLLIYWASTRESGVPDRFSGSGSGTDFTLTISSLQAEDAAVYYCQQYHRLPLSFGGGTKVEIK

Sequences are complete VL domains. Affinities are written as log10 Kd with Kd in nM; a lower number is a better binder. The mean shown is taken over the replicates in which the pair was detected.

VL,group,mean log10 Kd (nM),replicates with signal,control signals
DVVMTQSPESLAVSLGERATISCKLDQSGLYGSRNKNSVAWYQQKAGQPPKLLIYEASEREVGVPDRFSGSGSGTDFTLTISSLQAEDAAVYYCQQYHRLPLYFGGGTKVEIK,GP_Gibbs,0.01,6/6,1/18
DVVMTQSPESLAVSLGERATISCKSSQEDDYQSRNINSVAWYQQKAGQPPKLLIYDASLRESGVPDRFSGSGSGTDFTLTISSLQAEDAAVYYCQQYHRLPLSFGGGTKVEIK,GP_Gibbs,-0.08,6/6,1/18
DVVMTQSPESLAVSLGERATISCKSSQSVLFESRNKDSVAWYQQKAGQPPKLLIYFASTRESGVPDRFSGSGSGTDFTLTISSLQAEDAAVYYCQQYHRLPLSFGGGTKVEIK,Ctrl,1.45,1/6,2/18
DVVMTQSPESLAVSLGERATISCKLVGVDDNDNNPMSAIAWYQQKAGQPPKLLIYDVSTLDNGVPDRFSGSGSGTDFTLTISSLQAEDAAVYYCQQYHRLPLDFGGGTKVEIK,En_Gibbs,0.49,6/6,1/18
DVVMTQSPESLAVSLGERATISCKFQQSQLYESRNKNSVAWYQQKAGQPPKLLIYNASCRCSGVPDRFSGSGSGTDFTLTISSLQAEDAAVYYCQQYHRLPLSFGGGTKVEIK,GP_Gibbs,0.47,6/6,0/18
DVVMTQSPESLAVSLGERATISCKLSGFYRMESRNKNSVAWYQQKAGQPPKLLIYDNSTRESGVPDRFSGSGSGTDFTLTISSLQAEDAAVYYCQQYDRLPLSFGGGTKVEIK,En_HC,3.10,5/6,2/18
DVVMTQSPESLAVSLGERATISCKMSQLQLYEWRNSNSVAWYQQKAGQPPKLLIYNASYRESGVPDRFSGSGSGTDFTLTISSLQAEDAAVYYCQQYHRLPLSFGGGTKVEIK,GP_Gibbs,0.25,6/6,1/18
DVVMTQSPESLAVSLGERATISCTLSDLMYMESRNYNSVAWYQQKAGQPPKLLIYDLVERESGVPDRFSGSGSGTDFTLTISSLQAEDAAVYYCQQYHRLPLSFGGGTKVEIK,En_HC,0.92,6/6,2/18
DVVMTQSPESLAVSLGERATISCTISNVMNTLTRHGNNVAWYQQKAGQPPKLLIYDLEEREDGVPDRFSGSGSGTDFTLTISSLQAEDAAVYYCQQYFRLPLSFGGGTKVEIK,En_Gen,0.67,6/6,0/18
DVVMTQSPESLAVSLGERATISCKLYFNVGTMAHNKQSIAWYQQKAGQPPKLLIYDMERREDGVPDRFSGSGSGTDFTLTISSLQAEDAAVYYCQQYHRLPLSFGGGTKVEIK,En_HC,-0.07,6/6,5/18
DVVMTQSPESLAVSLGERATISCKLSQSFLYESRNKNSVAWYQQKAGQPPKLLIYDASTRESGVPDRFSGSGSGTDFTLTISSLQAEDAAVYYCQAYHRLPLSFGGGTKVEIK,GP_Gen,-0.07,6/6,2/18
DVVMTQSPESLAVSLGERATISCQITQLVGYGQRNKNSVAWYQQKAGQPPKLLIYQMETRENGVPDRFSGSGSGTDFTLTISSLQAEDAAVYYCQQYDRLPLSFGGGTKVEIK,En_HC,0.77,6/6,2/18
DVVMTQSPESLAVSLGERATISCKLSPSVMYESRMKNSVAWYQQKAGQPPKLLIYMASTRYTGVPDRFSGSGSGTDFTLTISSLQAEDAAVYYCQQYHRLPLSFGGGTKVEIK,GP_Gibbs,-0.02,6/6,0/18
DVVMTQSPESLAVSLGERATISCKLPQSWLYESRNKNSVAWYQQKAGQPPKLLIYGASTRESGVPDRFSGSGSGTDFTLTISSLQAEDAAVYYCQQYHRLPLSFGGGTKVEIK,GP_Gen,-0.56,6/6,0/18
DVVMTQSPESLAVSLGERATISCKMSQSVLYESRNKNSFAWYQQKAGQPPKLLIYEASTRESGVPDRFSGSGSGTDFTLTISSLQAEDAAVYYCQQYHRLPLAFGGGTKVEIK,Ctrl,0.10,6/6,1/18
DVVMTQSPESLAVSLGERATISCKLPQSELYESRNKNSVAWYQQKAGQPPKLLIYHASQRESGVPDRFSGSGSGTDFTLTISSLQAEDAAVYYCQQYHRLPLSFGGGTKVEIK,GP_Gen,-0.16,6/6,1/18
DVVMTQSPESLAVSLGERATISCKLSASTRMESRNKASVAWYQQKAGQPPKLLIYENSTRESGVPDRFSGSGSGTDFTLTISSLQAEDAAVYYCQQYFRLPLSFGGGTKVEIK,En_HC,0.71,6/6,4/18
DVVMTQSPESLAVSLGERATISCKLEQSKNYESRNKNSVAWYQQKAGQPPKLLIYNASTRESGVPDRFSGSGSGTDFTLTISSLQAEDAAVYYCQQYHRLPLSFGGGTKVEIK,GP_HC,0.12,6/6,1/18
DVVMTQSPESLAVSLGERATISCKLSQSVLMLSRNKNSVAWYQQKAGQPPKLLIYEASTRESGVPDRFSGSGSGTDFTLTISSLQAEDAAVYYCQQYHRLPLSFGGGTKVEIK,GP_Gen,-0.43,6/6,0/18
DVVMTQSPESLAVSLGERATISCKLSQSVCYESRNKNSVAWYQQKAGQPPKLLIYDASTRESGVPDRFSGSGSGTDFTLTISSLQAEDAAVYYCQQYHRLPLSFGGGTKVEIK,GP_Gen,0.73,6/6,0/18
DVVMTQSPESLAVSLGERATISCMSYGGDMLDSVTRNSVAWYQQKAGQPPKLLIYNAETREDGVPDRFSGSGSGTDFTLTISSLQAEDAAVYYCQDYHRLPLSFGGGTKVEIK,En_HC,0.60,6/6,1/18
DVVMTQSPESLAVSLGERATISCQLNEYKHETEEKTQNIAWYQQKAGQPPKLLIYDMTIREPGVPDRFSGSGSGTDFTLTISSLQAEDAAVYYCQQYAHLPLAFGGGTKVEIK,En_Gibbs,0.79,6/6,1/18
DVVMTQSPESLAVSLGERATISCKMSDSVLYESRNKNSVAWYQQKAGQPPKLLIYWASERESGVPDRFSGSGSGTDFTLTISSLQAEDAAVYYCQQYHRLPLQFGGGTKVEIK,Ctrl,1.17,6/6,1/18
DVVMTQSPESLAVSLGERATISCKLSVSWLFESIEKNSVAWYQQKAGQPPKLLIYERSTRGSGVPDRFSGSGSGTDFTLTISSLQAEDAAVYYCQDYNRLPLSFGGGTKVEIK,En_HC,1.64,6/6,0/18
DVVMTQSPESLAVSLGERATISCKLSFSELYESRNKNSVAWYQQKAGQPPKLLIYEASTRESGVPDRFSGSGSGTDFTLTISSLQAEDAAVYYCQQYHRLPLSFGGGTKVEIK,GP_Gen,-0.50,6/6,1/18

The range of this assay differs from that of the first round, and the authors advise against merging the two. Of ten entries with the parent sequence, four were seen in most replicates (averages 0.34 to 2.37), three in one and three in none, so single entries are noisy. In the paper, a design with two or fewer of six values counts as a poor binder. Three control strains display no target. For all light chain designs, 4% of the pairings with them gave a signal, with a median of 2.64 and one signal in twenty below 1.59, so weak values seen in few replicates may be background. The control count says in how many pairings with the empty strains this scFv gave a signal.

Reference: Li et al. 2023, doi:10.1038/s41467-023-39022-2. File: FLAb, binding data.